Sequences of proteins named here, by UniProt entry; tags and fusion partners are left off. A line that says so, or that is headed by a name, gives the form on record, which may keep a tag or linker. Residues count along the entry.
UniProt O00329, 2-1044 with tags or gaps limits assumed: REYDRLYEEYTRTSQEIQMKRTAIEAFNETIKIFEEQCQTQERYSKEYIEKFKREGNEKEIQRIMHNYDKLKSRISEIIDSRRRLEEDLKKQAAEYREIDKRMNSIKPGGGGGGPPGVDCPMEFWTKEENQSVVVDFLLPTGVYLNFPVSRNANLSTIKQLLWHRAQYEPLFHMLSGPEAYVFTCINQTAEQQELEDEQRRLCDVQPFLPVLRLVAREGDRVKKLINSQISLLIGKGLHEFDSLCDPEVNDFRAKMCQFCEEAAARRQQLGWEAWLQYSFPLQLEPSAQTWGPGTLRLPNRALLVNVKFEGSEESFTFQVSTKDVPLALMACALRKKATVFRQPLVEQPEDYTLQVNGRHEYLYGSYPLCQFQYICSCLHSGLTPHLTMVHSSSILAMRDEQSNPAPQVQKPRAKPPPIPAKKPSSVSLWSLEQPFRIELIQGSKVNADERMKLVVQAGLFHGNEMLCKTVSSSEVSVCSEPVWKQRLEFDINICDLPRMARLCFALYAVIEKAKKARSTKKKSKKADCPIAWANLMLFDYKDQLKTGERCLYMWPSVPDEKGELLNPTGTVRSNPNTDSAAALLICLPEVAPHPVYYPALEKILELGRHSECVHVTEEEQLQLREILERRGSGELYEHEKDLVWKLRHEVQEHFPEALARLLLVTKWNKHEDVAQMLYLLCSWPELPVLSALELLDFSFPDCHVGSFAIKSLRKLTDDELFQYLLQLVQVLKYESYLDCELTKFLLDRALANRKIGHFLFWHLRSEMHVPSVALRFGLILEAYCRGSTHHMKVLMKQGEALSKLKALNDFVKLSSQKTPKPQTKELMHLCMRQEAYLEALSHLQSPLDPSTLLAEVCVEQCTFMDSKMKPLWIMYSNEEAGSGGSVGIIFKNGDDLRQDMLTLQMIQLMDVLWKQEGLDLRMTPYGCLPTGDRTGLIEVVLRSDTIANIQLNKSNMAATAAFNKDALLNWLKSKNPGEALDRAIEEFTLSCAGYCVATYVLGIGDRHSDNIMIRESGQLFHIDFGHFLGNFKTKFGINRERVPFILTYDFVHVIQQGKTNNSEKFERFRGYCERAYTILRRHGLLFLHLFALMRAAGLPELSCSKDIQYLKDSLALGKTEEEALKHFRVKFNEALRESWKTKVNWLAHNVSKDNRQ
UniProt P48736, 144-1102 limits assumed: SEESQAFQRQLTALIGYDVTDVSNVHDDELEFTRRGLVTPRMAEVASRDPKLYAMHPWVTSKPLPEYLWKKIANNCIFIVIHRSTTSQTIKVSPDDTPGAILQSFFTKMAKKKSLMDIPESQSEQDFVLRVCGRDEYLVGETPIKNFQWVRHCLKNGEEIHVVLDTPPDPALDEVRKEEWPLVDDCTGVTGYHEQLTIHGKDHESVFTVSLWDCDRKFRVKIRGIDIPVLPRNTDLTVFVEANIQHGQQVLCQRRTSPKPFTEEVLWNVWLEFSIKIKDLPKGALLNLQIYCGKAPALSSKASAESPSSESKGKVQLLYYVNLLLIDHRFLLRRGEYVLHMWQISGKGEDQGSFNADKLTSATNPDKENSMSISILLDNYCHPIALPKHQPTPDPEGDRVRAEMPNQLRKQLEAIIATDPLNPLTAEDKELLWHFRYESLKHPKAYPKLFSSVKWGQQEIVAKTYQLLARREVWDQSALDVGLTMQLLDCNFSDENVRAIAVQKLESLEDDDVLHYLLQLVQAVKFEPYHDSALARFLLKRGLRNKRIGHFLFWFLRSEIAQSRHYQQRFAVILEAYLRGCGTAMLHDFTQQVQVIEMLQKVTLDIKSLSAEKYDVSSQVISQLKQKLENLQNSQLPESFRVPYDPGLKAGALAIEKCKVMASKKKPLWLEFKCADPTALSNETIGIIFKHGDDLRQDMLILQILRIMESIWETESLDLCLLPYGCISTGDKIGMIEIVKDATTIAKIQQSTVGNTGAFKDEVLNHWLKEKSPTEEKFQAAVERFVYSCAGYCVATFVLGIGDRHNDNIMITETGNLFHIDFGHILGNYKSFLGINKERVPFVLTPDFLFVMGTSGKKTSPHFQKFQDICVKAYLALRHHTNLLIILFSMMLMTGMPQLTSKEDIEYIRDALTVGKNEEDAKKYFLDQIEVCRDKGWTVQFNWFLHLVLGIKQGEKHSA
UniProt P42338, 2-1070 with tags or gaps limits assumed: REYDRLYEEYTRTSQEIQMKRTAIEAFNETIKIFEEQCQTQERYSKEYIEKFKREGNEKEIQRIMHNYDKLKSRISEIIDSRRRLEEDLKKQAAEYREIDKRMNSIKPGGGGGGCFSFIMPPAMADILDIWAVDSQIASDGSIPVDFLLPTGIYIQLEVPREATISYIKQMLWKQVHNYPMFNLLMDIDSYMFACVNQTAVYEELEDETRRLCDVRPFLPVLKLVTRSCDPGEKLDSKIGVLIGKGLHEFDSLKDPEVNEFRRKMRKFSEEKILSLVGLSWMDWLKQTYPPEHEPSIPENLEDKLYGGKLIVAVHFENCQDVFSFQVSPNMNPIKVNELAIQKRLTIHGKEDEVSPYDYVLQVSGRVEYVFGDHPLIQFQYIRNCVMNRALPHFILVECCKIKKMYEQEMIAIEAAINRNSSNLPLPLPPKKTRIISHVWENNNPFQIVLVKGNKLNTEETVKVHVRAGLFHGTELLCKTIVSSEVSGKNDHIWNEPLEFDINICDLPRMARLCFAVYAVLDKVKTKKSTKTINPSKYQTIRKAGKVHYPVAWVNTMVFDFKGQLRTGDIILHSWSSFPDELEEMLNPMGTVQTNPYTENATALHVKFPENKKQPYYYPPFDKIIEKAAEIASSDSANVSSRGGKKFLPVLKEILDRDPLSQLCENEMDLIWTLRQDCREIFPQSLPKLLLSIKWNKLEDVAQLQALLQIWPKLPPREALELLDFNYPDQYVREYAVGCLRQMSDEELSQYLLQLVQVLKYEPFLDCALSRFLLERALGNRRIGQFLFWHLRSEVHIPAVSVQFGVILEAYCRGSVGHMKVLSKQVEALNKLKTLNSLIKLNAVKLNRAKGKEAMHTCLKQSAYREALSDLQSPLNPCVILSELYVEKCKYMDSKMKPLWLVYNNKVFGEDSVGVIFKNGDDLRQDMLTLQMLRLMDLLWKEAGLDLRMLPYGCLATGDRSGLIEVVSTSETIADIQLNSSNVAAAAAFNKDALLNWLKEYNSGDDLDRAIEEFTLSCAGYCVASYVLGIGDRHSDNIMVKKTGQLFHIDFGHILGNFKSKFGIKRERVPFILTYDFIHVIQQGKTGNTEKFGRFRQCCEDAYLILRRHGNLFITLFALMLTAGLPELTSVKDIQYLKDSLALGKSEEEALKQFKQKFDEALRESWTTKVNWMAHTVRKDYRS
UniProt P42336, 21-1068 with tags or gaps limits assumed: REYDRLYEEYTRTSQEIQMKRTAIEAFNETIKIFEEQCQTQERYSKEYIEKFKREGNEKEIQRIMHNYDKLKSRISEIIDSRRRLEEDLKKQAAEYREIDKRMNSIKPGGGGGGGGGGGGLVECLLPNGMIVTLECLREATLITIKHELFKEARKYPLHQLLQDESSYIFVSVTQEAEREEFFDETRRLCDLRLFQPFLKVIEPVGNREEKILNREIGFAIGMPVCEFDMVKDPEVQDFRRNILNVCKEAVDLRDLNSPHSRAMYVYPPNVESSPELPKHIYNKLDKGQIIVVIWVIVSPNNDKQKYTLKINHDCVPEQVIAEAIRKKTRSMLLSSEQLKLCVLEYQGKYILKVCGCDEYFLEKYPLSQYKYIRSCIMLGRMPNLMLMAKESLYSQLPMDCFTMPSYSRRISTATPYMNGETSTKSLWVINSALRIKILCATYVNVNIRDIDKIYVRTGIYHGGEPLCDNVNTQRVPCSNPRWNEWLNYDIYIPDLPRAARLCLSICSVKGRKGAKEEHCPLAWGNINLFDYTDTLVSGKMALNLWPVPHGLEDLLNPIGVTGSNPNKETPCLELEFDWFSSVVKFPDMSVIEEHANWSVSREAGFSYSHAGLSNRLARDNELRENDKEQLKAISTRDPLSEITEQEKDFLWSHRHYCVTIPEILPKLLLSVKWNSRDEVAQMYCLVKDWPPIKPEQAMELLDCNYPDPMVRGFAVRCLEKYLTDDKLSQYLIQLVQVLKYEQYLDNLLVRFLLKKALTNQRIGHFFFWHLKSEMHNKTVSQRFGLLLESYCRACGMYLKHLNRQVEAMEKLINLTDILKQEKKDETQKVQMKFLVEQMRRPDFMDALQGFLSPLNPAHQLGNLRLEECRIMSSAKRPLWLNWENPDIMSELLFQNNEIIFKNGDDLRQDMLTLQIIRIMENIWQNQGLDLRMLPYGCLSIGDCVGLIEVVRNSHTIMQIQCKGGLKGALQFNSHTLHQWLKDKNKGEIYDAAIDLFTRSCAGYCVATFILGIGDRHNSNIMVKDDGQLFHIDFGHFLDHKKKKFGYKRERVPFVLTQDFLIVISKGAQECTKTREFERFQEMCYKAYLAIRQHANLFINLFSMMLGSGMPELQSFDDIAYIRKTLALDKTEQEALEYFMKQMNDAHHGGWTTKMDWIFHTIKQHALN

According to patent publication US20100305113A1, “Substituted Imidazopyridazines as Lipid Kinase Inhibitors” (priority 2007, published 2010):

Experiments:
[1] = target: PI3K delta (Homo sapiens, UniProt O00329); experiment: PI3K delta enzymatic assay (Kinase-Glo luminescence); details: read-out: PI3K delta IC50; Enzymatic Data
Procedure: (§1) In a more preferred assay, the kinase reaction is performed in a final volume of 10 μL per well of a low volume non binding CORNING, 384 well black plate (Cat. No. #3676). The final concentrations of ATP and phosphatidyl inositol (PI) in the assay are 1 μM and 10 μg/mL respectively. The reaction is started by the addition of ATP.
(§2) The components of the assay are added per well as follows: […]
(§3) IC50 is determined by a four parameter curve fitting routine that comes aloneg with “excel fit”. […] Alternatively, IC50 values are calculated using idbsXLfit model 204, which is a 4 parameter logistic model.

[2] = target: PI3K gamma (Homo sapiens, UniProt P48736); experiment: PI3K gamma enzymatic assay (Kinase-Glo luminescence); details: read-out: PI3K gamma IC50; Enzymatic Data
Procedure: as §1, §2, §3

[3] = target: PI3K beta (Homo sapiens, UniProt P42338); experiment: PI3K beta enzymatic assay (Kinase-Glo luminescence); details: read-out: PI3K beta IC50; Enzymatic Data
Procedure: as §1, §2, §3

[4] = target: PI3K alfa (Homo sapiens, UniProt P42336); experiment: PI3K alfa enzymatic assay (Kinase-Glo luminescence); details: read-out: PI3K alfa IC50; Enzymatic Data
Procedure: as §1, §2, §3

IC50 [1] [µM]	IC50 [2] [µM]	IC50 [3] [µM]	IC50 [4] [µM]	SMILES
> 9.1	> 9.1	> 9.1		COc1cc(-c2ccc3nc(C)c(-c4cnc(N)c(C(F)(F)F)c4)n3n2)ccc1OCCNC(=O)c1ccc(F)c(F)c1
> 9.1	> 9.1	> 9.1	3.69	COc1cc(-c2ccc3nc(C)c(-c4cnc(N)c(C(F)(F)F)c4)n3n2)ccc1OCCNC(=O)c1cccc(C(F)(F)F)c1
> 9.1	> 9.1	> 9.1		COc1cccc(NC(=O)NCCCOc2ccc(-c3ccc4nc(C)c(-c5cnc(N)c(C(F)(F)F)c5)n4n3)cc2OC)c1
